Measurements as given in PubChem BioAssay AID504577 (NMMLSC, 2011).
The entries are a selection whose mix differs from that of the whole data set. Some structures show a salt or complex split into parts, the way the source records it. The source made the active and inactive calls. Cut-off read from the data, not from the text of the source: active = response mostly above about 7.3% (no sharp cut-off); inactive = mostly below about 5.4%.

Assay: regulators of yeast V-ATPase proton pumping, primary screen, pHLuorin cytosolic pH fluorescence (AID 504577)
Details: S. cerevisiae, at 10 µM, hits give high values

Compound | response
CP(=O)(OCCOc1ccccc1)OCCOc1ccccc1 | inactive: 1.3%
CP(=O)(Nc1ccc(Cl)cc1Cl)Oc1ccccc1 (stereo not drawn) | inactive: -0.37%
CCCCCCCCCCCCCCCC1C[N+](C)(C)CCOP(C)(=O)O1 (stereo not drawn) | inactive: -3.49%
COc1ccc(OP(C)(=O)Nc2ccccc2Br)cc1 (stereo not drawn) | inactive: 1.56%
COc1ccccc1OP(C)(=O)Nc1ccc(C)c(C)c1 (stereo not drawn) | inactive: 1.19%
Cc1cc(C)cc(OP(C)(=O)Nc2cccc(C(F)(F)F)c2)c1 (stereo not drawn) | inactive: -0.81%
O=C1C(O)=C([N+](=O)[O-])C(=O)C(O)=C1[N+](=O)[O-] | inactive: -3.84%
CCc1ccc(OP(C)(=O)O)cc1 | inactive: 1.72%
COc1ccccc1OP(C)(=O)Nc1ccc(C)cc1C (stereo not drawn) | inactive: 1.84%
CP(=O)(Nc1ccccn1)Oc1ccccc1 (stereo not drawn) | inactive: -5.9%
O=[N+]([O-])c1cc([N+](=O)[O-])c(Nc2ccccn2)c([N+](=O)[O-])c1 | inactive: -2.25%
Cc1c(NP(C)(=O)Oc2ccc(C(C)C)cc2)c(=O)n(-c2ccccc2)n1C (stereo not drawn) | inactive: 1.22%
CN(C)CCOC(=O)C(O)(c1ccccc1)C1CCCC1 (stereo not drawn) | inactive: -0.1%
COc1ccc(OP(C)(=O)Nc2ccccn2)cc1 (stereo not drawn) | inactive: 0.97%
COc1ccccc1OP(C)(=O)Nc1ccc(Br)cc1 (stereo not drawn) | inactive: 0.22%
CN(C)C(=O)c1c([N+](=O)[O-])cc([N+](=O)[O-])cc1[N+](=O)[O-] | inactive: -5.43%
CP(=O)(Nc1ccc(Cl)cc1)Oc1ccc(F)cc1 (stereo not drawn) | inactive: 1.71%
CC(C)(C)c1ccc(OP(C)(=O)O)cc1 | inactive: 5.04%
COc1ccccc1OP(C)(=O)Nc1ccccc1Br (stereo not drawn) | inactive: 6.66%
CCc1ccc(OP(C)(=O)Nc2cccnc2)cc1 (stereo not drawn) | inactive: 5.45%

Compound | response
CP(=O)(Oc1ccccc1)N1CCOC1=O (stereo not drawn) | inactive: 3.82%
O=C(OCCCN1CCCC1)C(O)(c1ccccc1)C1CCCCC1 (stereo not drawn) | inactive: -2.67%
COc1ccccc1OP(C)(=O)Nc1c(C)n(C)n(-c2ccccc2)c1=O (stereo not drawn) | inactive: -0.28%
COc1ccc(OP(C)(=O)Nc2ccc(Br)cc2)cc1 (stereo not drawn) | inactive: 0.75%
CCN(CC)CC(O)COC(=O)C(O)(c1ccccc1)C1CCCCC1 (stereo not drawn) | inactive: -1.97%
CP(=O)(OC12CC3CC(CC(C3)C1)C2)OC12CC3CC(CC(C3)C1)C2 | inactive: -0.12%
CCOC(=O)c1ccc(NP(C)(=O)Oc2ccc(Cl)cc2)cc1 (stereo not drawn) | inactive: 1.21%
Nc1ccc2c(ccc3cccnc32)n1.O=[N+]([O-])c1cc([N+](=O)[O-])c(O)c([N+](=O)[O-])c1 | inactive: -1.57%
Cc1c(C(c2ccc3c(c2)OCO3)c2c(C)n(C)n(-c3ccccc3)c2=O)c(=O)n(-c2ccccc2)n1C.O=[N+]([O-])c1cc([N+](=O)[O-])c(O)c([N+](=O)[O-])c1 | inactive: -0.08%
O=[N+]([O-])c1cc([N+](=O)[O-])c(NCC2CCS(=O)(=O)C2)c([N+](=O)[O-])c1 (stereo not drawn) | inactive: -2.67%
Cc1cc(-c2cccc3ccccc23)c(C)cn1.O=[N+]([O-])c1cc([N+](=O)[O-])c(O)c([N+](=O)[O-])c1 | inactive: 0.07%
O=[N+]([O-])c1ccc(OP2(=O)COCCO2)cc1 (stereo not drawn) | inactive: 7.54%
COc1ccc(NP(C)(=O)Oc2ccccc2OC)cc1 (stereo not drawn) | inactive: 8.55%
COc1ccc(OP(C)(=O)Nc2cccc(Br)c2)cc1 (stereo not drawn) | inactive: -0.01%
Cc1ccccc1NP(C)(=O)Nc1ccccc1C | inactive: 0.84%
CP(=O)(Nc1ccc2c(c1)OCCO2)Oc1ccccc1 (stereo not drawn) | inactive: -4.81%
CCOP(C)(=S)SCC(=O)NC(C)(CC)C(=O)O (stereo not drawn) | inactive: 1.08%
CP(=O)(Nc1ccc(SC(F)(F)F)cc1)Oc1ccc(F)cc1 (stereo not drawn) | inactive: -0.89%
COc1ccc2c(c1O)-c1c(O)c(OC)cc3c1[C@H](C2)[N+](C)(C)CC3.O=[N+]([O-])c1cc([N+](=O)[O-])c([O-])c([N+](=O)[O-])c1[O-] | inactive: -5.68%
O=C(OCCN1CCN(CCOCc2ccccc2)CC1)C(O)(c1ccccc1)c1ccccc1 | inactive: 0.95%

Compound | response
O=C(OC1CN2CCC1CC2)c1ccc([N+](=O)[O-])cc1 (stereo not drawn) | inactive: 0.96%
CC(C)c1ccc(OP(C)(=O)Nc2ccc(SC(F)(F)F)cc2)cc1 (stereo not drawn) | inactive: -4.26%
CP(=O)(Nc1ccccc1F)Oc1ccccc1 (stereo not drawn) | inactive: 2.23%
O=[N+]([O-])c1cc([N+](=O)[O-])c(Nc2ccc(Cl)cc2)c([N+](=O)[O-])c1 | inactive: -19%
O=[N+]([O-])c1cc([N+](=O)[O-])c(OC2CCCCC2O)c([N+](=O)[O-])c1 (stereo not drawn) | inactive: -1.92%
CCCCCOc1ccc(NP(C)(=O)Oc2ccc(Cl)cc2Cl)cc1 (stereo not drawn) | inactive: 2.86%
CP(=O)(Nc1ccccc1)Oc1ccc(F)cc1 (stereo not drawn) | inactive: 1.69%
CCN(CC)CCCOC(=O)C(O)(c1ccccc1)C1CCCCC1 (stereo not drawn) | inactive: -1.12%
Cc1c([N+](=O)[O-])cc([N+](=O)[O-])c(Br)c1[N+](=O)[O-] | inactive: 5.5%
COc1ccc(OP(C)(=O)Nc2ccc(SC(F)(F)F)cc2)cc1 (stereo not drawn) | inactive: 0.13%
CCOC(=O)c1ccc(NP(C)(=O)Oc2ccc(F)cc2)cc1 (stereo not drawn) | inactive: 3.46%
CC1=NCCc2c1[nH]c1ccccc21.O=[N+]([O-])c1cc([N+](=O)[O-])c(O)c([N+](=O)[O-])c1 | inactive: -0.75%
O=C(O)c1cccc(Nc2c([N+](=O)[O-])cc([N+](=O)[O-])cc2[N+](=O)[O-])c1 | inactive: -0.51%
CP(=O)(Nc1cccc(Br)c1)Oc1ccccc1 (stereo not drawn) | inactive: -2.19%
Cc1cc(C)cc(OP(C)(=O)Nc2ccccn2)c1 (stereo not drawn) | inactive: 2.76%
Cc1ccc(C)c(NP(C)(=O)Oc2ccccc2)c1 (stereo not drawn) | inactive: 3.97%
Cc1cc(C)cc(OP(C)(=O)Nc2ccc(C)cc2C)c1 (stereo not drawn) | inactive: -4.82%
CCOC(=O)c1ccc(NP(C)(=O)Oc2cc(C)cc(C)c2)cc1 (stereo not drawn) | inactive: 1.41%
